The values below are quoted from earlier work in publication PMC11823679, “Protamine protects against vancomycin-induced kidney injury” (Antimicrobial Agents and Chemotherapy, 2025).

By IC50 is commonly meant the concentration that inhibits the measured activity by half.

In this series the test system is OAT1. The note with it: read-out: IC50 (referent); exemplar inhibitor; CHOK1 cells; ref referent IC50 results on file (Eurofins); cited from earlier work.

Structures are written as SMILES.

For the compound `CCCN(CCC)S(=O)(=O)c1ccc(C(=O)O)cc1` [probenecid], the IC50 was 1600 nM.
